Results reported in US9670201B2, “Methyl- and trifluoromethyl-substituted pyrrolopyridine modulators of RORC2 and methods of use thereof” (Pfizer Inc., priority 2014, dated 2017).

Tested on: IL-17 production from human Th17 cells
Experiment: IL-17 production from human Th17 cells
Format: cell-based
Conditions: CD4+ T, 144 h

Row | Structure (SMILES) | IC50 [nM]
1 | C[C@@H]1CCC[C@H]1C(=O)N1CCC(c2cn(C)c3ncc(NC(=O)c4cccc(C#N)c4)c(C(F)(F)F)c23)CC1 (racemic) [Example 26, Rac-3-cyano-N-(1-methyl-3-(1-((1S*,2S*)-2-methylcyclopentane-1-carbonyl)piperidin-4-yl)-4-(trifluoromethyl)-1H-pyrrolo[2,3-b]pyridin-5-yl)benzamide] | 7.7
2 | C[C@@H]1CCC[C@@H]1C(=O)N1CCC(c2cn(C)c3ncc(NC(=O)c4cccc(C#N)c4)c(C(F)(F)F)c23)CC1 (racemic) [Example 27, Rac-3-cyano-N-(1-methyl-3-(1-((1R*,2S*)-2-methylcyclopentane-1-carbonyl)piperidin-4-yl)-4-(trifluoromethyl)-1H-pyrrolo[2,3-b]pyridin-5-yl)benzamide] | 8.4
3 | Cc1c(NC(=O)c2cccc(C#N)c2)cnc2c1c(C1CCN(C(=O)[C@H]3C[C@H]4CC[C@@H]3C4)CC1)cn2C [Example 35, N-(3-(1-((1R,2S,4S)-bicyclo[2.2.1]heptane-2-carbonyl)piperidin-4-yl)-1,4-dimethyl-1H-pyrrolo[2,3-b]pyridin-5-yl)-3-cyanobenzamide] | 14.3

Next, values leading:

Row | IC50 [nM] | Structure (SMILES)
4 | 6.6 | Cc1c(NC(=O)c2cccc(C#N)c2)cnc2c1c(C1CCN(C(=O)[C@@H]3C[C@@H]4CC[C@H]3C4)CC1)cn2C [Example 36, N-(3-(1-((1S,2R,4R)-bicyclo[2.2.1]heptane-2-carbonyl)piperidin-4-yl)-1,4-dimethyl-1H-pyrrolo[2,3-b]pyridin-5-yl)-3-cyanobenzamide]
5 | 276 | Cc1c(NC(=O)c2cccc(C#N)c2)cnc2c1c(C1[C@@H]3CC[C@H]1CN(C(=O)C(C)C)C3)cn2C (stereo partly drawn) [Example 98, 3-cyano-N-(3-((1R,5S,8r)-3-isobutyryl-3-azabicyclo[3.2.1]octan-8-yl)-1,4-dimethyl-1H-pyrrolo[2,3-b]pyridin-5-yl)benzamide]
6 | 4 | COc1ccc(C(=O)Nc2cnc3c(c(C4C5CC[C@H]4CN(C(=O)C(C)C)C5)cn3C)c2C(F)(F)F)cc1C#N (stereo partly drawn) [Example 78, 3-cyano-N-(3-((1R,5S,8r)-3-isobutyryl-3-azabicyclo[3.2.1]octan-8-yl)-1-methyl-4-(trifluoromethyl)-1H-pyrrolo[2,3-b]pyridin-5-yl)-4-methoxybenzamide]
7 | 16.6 | Cc1c(NC(=O)c2cccc(C#N)c2)cnc2c1c([C@@H]1CCN(C(=O)[C@H](C)C(F)(F)F)C[C@@H]1C)cn2C [Example 89, 3-cyano-N-(1,4-dimethyl-3-((3R,4R)-3-methyl-1-((S)-3,3,3-trifluoro-2-methylpropanoyl)piperidin-4-yl)-1H-pyrrolo[2,3-b]pyridin-5-yl)benzamide]
